## Measured affinities in a library of Ab-14 heavy chain variants

The target is the same throughout: PDVDLGDISGINAS, from the HR2 region of SARS-CoV-2 spike.

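Phage display of a naive human antibody library on the peptide gave the parent. AAYL49 was designed without a model: most single CDR substitutions and a random sample of double and triple ones. Affinity was read by AlphaSeq, a pooled yeast mating assay with surface-displayed partners. Mating (16 h, 30 °C) was followed by selection of diploids and sequencing of their barcodes. Each replicate has its own calibration line, from reference interactions of the BCL2 family. Mating was done three times.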

Each scFv is VH, the linker GGGGSGGGGSGGGGS, VL, as in the parent Ab-14, and differs from it in the CDRs of the heavy chain only.
VH: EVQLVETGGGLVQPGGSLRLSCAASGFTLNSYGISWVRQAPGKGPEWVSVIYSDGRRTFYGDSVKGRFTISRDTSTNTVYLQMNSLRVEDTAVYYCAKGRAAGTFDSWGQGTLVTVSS
VL: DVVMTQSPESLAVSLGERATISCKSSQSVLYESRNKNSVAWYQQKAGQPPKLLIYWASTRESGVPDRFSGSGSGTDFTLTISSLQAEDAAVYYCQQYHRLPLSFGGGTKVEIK

The parent's heavy chain CDRs are GFTLNSYGIS, VIYSDGRRTFYGDSVK, GRAAGTFDS; each variant's own CDRs replace them letter for letter. Every variant below is changed at S35 of the VH (sequential numbering). The Kd shown is the geometric mean over detected replicates; a lower Kd is a better binder. "nd" means that the variant was in the library but no mating with the target was seen in any replicate; the authors take this as a sign of poor binding, and no number exists. Nonspecific signal, from three strains lacking the peptide, appeared in 15% of pairings of library AAYL49, centred on 11 µM (5% of these signals below 680 nM); values are not corrected for it. Also given: how often the same scFv was detected with the empty control strains.

Variant GFTLNSFGIQ / VIYSDGRRTFYGDSVK / GRAAGTFDI gave 1.1 mM (1 of 3 replicates; controls 1 of 9).
Variant GFTLNSVGIY / VIYSDGRRTFYGDSVC / GRAAGTFDS gave nd (0 of 3 replicates; controls 0 of 9).
Variant GFTLNSYGIQ / VIYSDGRRVFYGDSVK / GRAAGTFGS gave nd (0 of 3 replicates; controls 0 of 9).
Variant GFTLASYGIG / VIYSDGRRTFYADSVK / GRAAGTFDS gave nd (0 of 3 replicates; controls 1 of 9).
Variant GFHLNSYGIT / VEYSDGRRTFYGDSVK / GRAAGTFDS gave 19 µM (1 of 3 replicates; controls 1 of 9).
Variant GFTLNSYGIF / VIYSDGRRTFYGDSVK / GRAAGDFDS gave 8.5 µM (1 of 3 replicates; controls 0 of 9).
Variant GFTLNSYGIY / VFYSDGRRTFYGDSVK / HRAAGTFDS gave 110 µM (2 of 3 replicates; controls 2 of 9).
Variant GFTLNSYGIG / VIYSDGRRTFYGDSVK / GRAAGTFDS gave nd (0 of 3 replicates; controls 0 of 9).
Variant LFTLNSYGIT / VIYSDGRRTFYGDSVK / GRAQGTFDS gave 36 µM (1 of 3 replicates; controls 2 of 9).
Variant GFTLNSYMIK / VIYSDGRFTFYGDSVK / GRAAGTFDS gave 28 µM (1 of 3 replicates; controls 0 of 9).
Variant GFTLNSYGIV / VIYSDNRRTFYGDSVH / GRAAGTFDS gave 25 µM (2 of 3 replicates; controls 0 of 9).
Variant GFTLNSYGIW / VIYSDGRRTFYGDSNK / GRAAGTFIS gave nd (0 of 3 replicates; controls 0 of 9).
Variant GFTLNSYGIR / VIYCDGRRTFYGDSVK / GRAAGTFDS gave nd (0 of 3 replicates; controls 0 of 9).
Variant GFTLNSYGIE / VIYSDGRRTFYGDPVG / GRAAGTFDS gave 180 µM (2 of 3 replicates; controls 3 of 9).
Variant GFTLNSYGIA / VIYSDGRRTGYGDGVK / GRAAGTFDS gave nd (0 of 3 replicates; controls 0 of 9).
Variant GFTLNSYGIY / VIYSDGRRTFYGDSVK / GSAAGNFDS gave 4.2 µM (1 of 3 replicates; controls 3 of 9).
Variant GFTLNSYGIR / VIYSDGRRTFYGWSVK / GRFAGTFDS gave nd (0 of 3 replicates; controls 0 of 9).
Variant GFTLNSYGIN / VIGSDGDRTFYGDSVK / GRAAGTFDS gave 84 µM (1 of 3 replicates; controls 0 of 9).
Variant GFTLNSYGII / VIHSDGRRTFYGDSVA / GRAAGTFDS gave 42 µM (1 of 3 replicates; controls 0 of 9).
Variant GFTLNSYGIL / VIYSDGRRSFYGDSVK / GRAAITFDS gave 140 µM (1 of 3 replicates; controls 5 of 9).
Variant GFTLNSYGIC / VIYSDWRRTFMGDSVK / GRAAGTFDS gave nd (0 of 3 replicates; controls 0 of 9).
Variant GFTLNSYGIF / VLYSDGRRQFYGDSVK / GRAAGTFDS gave nd (0 of 3 replicates; controls 1 of 9).
Variant GFTLNSYGNF / VLYSDGRRTFYGDSVK / GRAAGTFDS gave nd (0 of 3 replicates; controls 0 of 9).
Variant GFTANSYGIF / VIYSDGRRTFYGDSVK / GRAAGTFDS gave nd (0 of 3 replicates; controls 0 of 9).
Variant GFTLNSYGIK / VIYSDGRRTFFGDIVK / GRAAGTFDS gave nd (0 of 3 replicates; controls 1 of 9).
Variant GFTLNSYGII / KIYSDGRRTFYGDSVK / GRAAGTADS gave 3.0 µM (1 of 3 replicates; controls 2 of 9).
Variant GFTLNSYGIL / VIYSDGGITFYGDSVK / GRAAGTFDS gave nd (0 of 3 replicates; controls 3 of 9).
Variant GFTLNSYGIM / VIHSDGRRTFYGDSVK / GRAAGYFDS gave nd (0 of 3 replicates; controls 0 of 9).
Variant GFTLNSYGIK / VIYFDGRRTFYGDRVK / GRAAGTFDS gave nd (0 of 3 replicates; controls 1 of 9).
Variant GFTLNHYGIF / VIYSDGRRTFYGDSVK / GRAKGTFDS gave nd (0 of 3 replicates; controls 0 of 9).
Variant GFTLNSYGIG / VIYSDGRRTMYGDSVW / GRAAGTFDS gave 28 µM (1 of 3 replicates; controls 2 of 9).
Variant GFTLWSYGIQ / VIYSDGARTFYGDSVK / GRAAGTFDS gave nd (0 of 3 replicates; controls 1 of 9).
Variant GWTLNSYGIM / VIYSDGRRTFYGDSVK / GFAAGTFDS gave nd (0 of 3 replicates; controls 1 of 9).
Variant GFTLNSYGIE / VIYSDGRRTFYGDSVH / GRAATTFDS gave 2.5 µM (1 of 3 replicates; controls 0 of 9).
Variant GFTLNSYGIA / TIYSGGRRTFYGDSVK / GRAAGTFDS gave nd (0 of 3 replicates; controls 0 of 9).
Variant GFTLSSYGIQ / VIYSDGRRTFYGDSVK / GIAAGTFDS gave nd (0 of 3 replicates; controls 1 of 9).
Variant GHTHNSYGIM / VIYSDGRRTFYGDSVK / GRAAGTFDS gave 1.3 mM (1 of 3 replicates; controls 2 of 9).
Variant GFTLNSYGIR / VICSDGRRTFYGDSHK / GRAAGTFDS gave 18 µM (2 of 3 replicates; controls 3 of 9).
Variant GFTLNSYGIW / VIYSVCRRTFYGDSVK / GRAAGTFDS gave nd (0 of 3 replicates; controls 0 of 9).
Variant GHTLNSYGIK / VIYSDGRRTFYGDVVK / GRAAGTFDS gave 81 µM (1 of 3 replicates; controls 0 of 9).
Variant GFTLNSYGIK / VIFDDGRRTFYGDSVK / GRAAGTFDS gave nd (0 of 3 replicates; controls 0 of 9).
Variant GMTRNSYGIY / VIYSDGRRTFYGDSVK / GRAAGTFDS gave 4.7 nM (3 of 3 replicates; controls 1 of 9).
Variant GFTLNSYGID / VIYSDGRRTFYGDSVK / GRAAGTFDS gave nd (0 of 3 replicates; controls 0 of 9).
Variant GFTLNSRGIN / VFYSDGRRTFYGDSVK / GRAAGTFDS gave 14 µM (2 of 3 replicates; controls 4 of 9).
Variant GFTFNSYGIL / VIYSDGGRTFYGDSVK / GRAAGTFDS gave nd (0 of 3 replicates; controls 0 of 9).
Variant GFTLNSYGIF / VIYSDGRRTFYGDSVK / ARAAGWFDS gave nd (0 of 3 replicates; controls 0 of 9).
Variant GFTLNSYGIK / VIYSDGRRGFYGDSVK / GRAAGTFDS gave 3.2 µM (1 of 3 replicates; controls 2 of 9).
Variant GFTLNSYGIG / VIYSDGRRTFYGDHVK / GRAAGVFDS gave 25 µM (2 of 3 replicates; controls 2 of 9).
Variant GFTLNSYGIN / VQYSDGRRTFYGDSVK / GRAAGSFDS gave 52 µM (1 of 3 replicates; controls 2 of 9).
Variant GFTLNSYWIE / VIYTDGRRTFYGDSVK / GRAAGTFDS gave 160 µM (1 of 3 replicates; controls 2 of 9).
Variant GFTLNSYGAV / VIYSDGRRTHYGDSVK / GRAAGTFDS gave nd (0 of 3 replicates; controls 0 of 9).

The closing 5 entries, repeated:

{"CDR-H1": "GFTLNSYGIK", "CDR-H2": "VIYSDGRRGFYGDSVK", "CDR-H3": "GRAAGTFDS", "Kd": "3.2 µM", "replicates with signal": "1 of 3", "empty controls": "2 of 9"}
{"CDR-H1": "GFTLNSYGIG", "CDR-H2": "VIYSDGRRTFYGDHVK", "CDR-H3": "GRAAGVFDS", "Kd": "25 µM", "replicates with signal": "2 of 3", "empty controls": "2 of 9"}
{"CDR-H1": "GFTLNSYGIN", "CDR-H2": "VQYSDGRRTFYGDSVK", "CDR-H3": "GRAAGSFDS", "Kd": "52 µM", "replicates with signal": "1 of 3", "empty controls": "2 of 9"}
{"CDR-H1": "GFTLNSYWIE", "CDR-H2": "VIYTDGRRTFYGDSVK", "CDR-H3": "GRAAGTFDS", "Kd": "160 µM", "replicates with signal": "1 of 3", "empty controls": "2 of 9"}
{"CDR-H1": "GFTLNSYGAV", "CDR-H2": "VIYSDGRRTHYGDSVK", "CDR-H3": "GRAAGTFDS", "Kd": "nd", "replicates with signal": "0 of 3", "empty controls": "0 of 9"}

Reference: Engelhart et al. 2022, doi:10.1038/s41597-022-01779-4. File: FLAb, binding data.